Measured values taken from patent US20240358684A1, “METHOD FOR ENHANCING INNATE IMMUNE RESPONSE” (Kyoto University, priority 2021, published 2024).

Chains of the proteins cited; added tags and fusions are not shown. Lines headed by an entry give the natural chain unless they say otherwise; changes in a name come on top.
UniProt P49761: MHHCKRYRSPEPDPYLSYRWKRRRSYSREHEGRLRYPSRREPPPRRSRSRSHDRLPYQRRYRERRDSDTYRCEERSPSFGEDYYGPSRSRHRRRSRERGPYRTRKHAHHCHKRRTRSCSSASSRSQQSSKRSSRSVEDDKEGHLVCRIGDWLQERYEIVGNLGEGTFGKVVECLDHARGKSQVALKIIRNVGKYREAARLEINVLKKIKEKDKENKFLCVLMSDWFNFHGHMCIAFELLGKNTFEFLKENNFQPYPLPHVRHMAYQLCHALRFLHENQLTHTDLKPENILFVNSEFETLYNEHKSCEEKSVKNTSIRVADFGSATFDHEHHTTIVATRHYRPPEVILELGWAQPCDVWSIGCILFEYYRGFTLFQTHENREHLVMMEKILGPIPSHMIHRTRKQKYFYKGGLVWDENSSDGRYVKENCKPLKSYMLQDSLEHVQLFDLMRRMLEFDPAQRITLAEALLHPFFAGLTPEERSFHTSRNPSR

Biological target: T1, CLK3 (Homo sapiens, UniProt P49761)
T1 construct: Enzyme activity was measured with off-chip mobility shift assay using purified CLK protein
Assay: Inhibition confirmation test for CLK (off-chip mobility shift assay)
Assay type: biochemical
Details: ATP 75 μM; read-out: CLK3 inhibitory activity (IC50 value)
Protocol: Enzyme activity was measured with off-chip mobility shift assay using purified CLK protein. DYRKtide-F peptide (1 μM) was used as a substrate, and a composition of a reaction solution used was as follows (20 mM HEPES (pH7.5), 0.01% Triton X-100, 1 mM DT7, 1% DMSO, and ATP (10 μM for CLK1, 150 μM for CLK2, and 75 μM for CLK3)). The enzyme reaction was performed at room temperature for 1 hour, and the reaction was terminated by adding QuickScout Screening Assist MSA (Carna Biosciences, Inc.). A substrate peptide and a phosphorylated peptide in the enzyme reaction solution were separated and quantified using the LabChip system (Perkin-Elmer, Waltham, MA, USA), and inhibition of CLK was evaluated by calculating a product ratio using the following formula, the substrate peptide peak height (S), and the phosphorylated peptide peak height (P).
(P/(P+S)) • P: product-derived peak • S: substrate-derived peak

pIC50: < 5.52
Compound: CCN1/C(=C/C(C)=O)Sc2ccc(OC)cc21 [compound 4, 1-(3-ethyl-5-methoxy-1,3-benzothiazol-2-ylidene)propan-2-one, reference compound]

pIC50: −log10 of the molar value.
